## CycPeptMPDB entries from one study

Data: CycPeptMPDB; original report Furukawa et al. 2016, doi:10.1021/acs.jmedchem.6b01246.

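Lipid, pH, incubation time, direction and concentration are not recorded in the data file. Other peptides of the study may be missing here. Peptides that the database sets to -10, its floor, are left out.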

PAMPA measures passive passage through an artificial lipid membrane. Values are log10 P with P in cm/s, so -5 is more permeable than -7.

| PAMPA (log10 cm/s) | SMILES |
|---|---|
| -5.43 | CCCCCN1CC(=O)N(C)[C@H](CC(C)C)C(=O)N[C@@H](CCCC)C(=O)N2CCC[C@H]2C(=O)N(Cc2ccc3c(c2)OCO3)CC(=O)N[C@H](Cc2ccccc2)C1=O |
| -5.64 | CCCC[C@@H]1NC(=O)[C@H](CC(C)C)NC(=O)CN(CC2CCCCC2)C(=O)[C@@H](Cc2ccccc2)NC(=O)CN(Cc2ccc3c(c2)OCO3)C(=O)[C@@H]2CCCN2C1=O |
| -5.23 | CCCCCN1CC(=O)N(C)[C@@H](CC(C)C)C(=O)N[C@@H](CCCC)C(=O)N2CCC[C@H]2C(=O)N(CCCOC(C)C)CC(=O)N[C@H](C)C1=O |
| -5.67 | CCCCCN1CC(=O)N[C@@H](CC(C)C)C(=O)N[C@@H](CCCC)C(=O)N2CCC[C@@H]2C(=O)N(Cc2ccc3c(c2)OCO3)CC(=O)N[C@H](C)C1=O |
| -6.37 | CCCC[C@@H]1NC(=O)[C@H](CC(C)C)NC(=O)CN(CC2CCOCC2)C(=O)[C@H](Cc2ccccc2)NC(=O)CN(CC)C(=O)[C@@H]2CCCN2C1=O |
| -5.01 | CCCC[C@@H]1NC(=O)[C@@H](CC(C)C)N(C)C(=O)CN(CC2CCCCC2)C(=O)[C@H](Cc2ccccc2)NC(=O)CN(CC)C(=O)[C@@H]2CCCN2C1=O |
| -5.19 | CCCC[C@@H]1NC(=O)[C@@H](CC(C)C)NC(=O)CN(CC2CCCCC2)C(=O)[C@@H](C)NC(=O)CN(Cc2ccc3c(c2)OCO3)C(=O)[C@H]2CCCN2C1=O |
| -4.99 | CCCCCN1CC(=O)N[C@H](CC(C)C)C(=O)N[C@@H](CCCC)C(=O)N2CCC[C@@H]2C(=O)N(Cc2ccc3c(c2)OCO3)CC(=O)N[C@@H](C)C1=O |
| -5.16 | CCCC[C@@H]1NC(=O)[C@H](CC(C)C)N(C)C(=O)CN(CC2CCCCC2)C(=O)[C@@H](Cc2ccccc2)NC(=O)CN(CC)C(=O)[C@H]2CCCN2C1=O |
| -5.04 | CCCCCN1CC(=O)N(C)[C@@H](CC(C)C)C(=O)N[C@@H](CCCC)C(=O)N2CCC[C@@H]2C(=O)N(CC)CC(=O)N[C@@H](Cc2ccccc2)C1=O |
| -5.09 | CCCC[C@@H]1NC(=O)[C@H](CC(C)C)N(C)C(=O)CN(CC2CCCCC2)C(=O)[C@@H](C)NC(=O)CN(Cc2ccc3c(c2)OCO3)C(=O)[C@@H]2CCCN2C1=O |
| -5.80 | CCCC[C@@H]1NC(=O)[C@H](CC(C)C)N(C)C(=O)CN(CC2CCCCC2)C(=O)[C@@H](Cc2ccccc2)NC(=O)CN(Cc2ccc3c(c2)OCO3)C(=O)[C@H]2CCCN2C1=O |
| -7.42 | CCCC[C@@H]1NC(=O)[C@@H](CC(C)C)N(C)C(=O)CN(CC2CCOCC2)C(=O)[C@@H](C)NC(=O)CN(CCCOC(C)C)C(=O)[C@@H]2CCCN2C1=O |
| -5.24 | CCCCCN1CC(=O)N[C@@H](CC(C)C)C(=O)N[C@@H](CCCC)C(=O)N2CCC[C@@H]2C(=O)N(Cc2ccc3c(c2)OCO3)CC(=O)N[C@@H](Cc2ccccc2)C1=O |
| -4.93 | CCCCCN1CC(=O)N[C@H](CC(C)C)C(=O)N[C@@H](CCCC)C(=O)N2CCC[C@H]2C(=O)N(CCCOC(C)C)CC(=O)N[C@H](Cc2ccccc2)C1=O |
| -6.48 | CCCC[C@@H]1NC(=O)[C@H](CC(C)C)NC(=O)CN(CC2CCCCC2)C(=O)[C@@H](C)NC(=O)CN(CC)C(=O)[C@@H]2CCCN2C1=O |
| -5.22 | CCCCCN1CC(=O)N[C@H](CC(C)C)C(=O)N[C@@H](CCCC)C(=O)N2CCC[C@@H]2C(=O)N(CC)CC(=O)N[C@H](Cc2ccccc2)C1=O |
| -4.85 | CCCCCN1CC(=O)N(C)[C@H](CC(C)C)C(=O)N[C@@H](CCCC)C(=O)N2CCC[C@H]2C(=O)N(CC)CC(=O)N[C@@H](Cc2ccccc2)C1=O |
| -5.19 | CCCC[C@@H]1NC(=O)[C@H](CC(C)C)N(C)C(=O)CN(CC2CCOCC2)C(=O)[C@H](Cc2ccccc2)NC(=O)CN(Cc2ccc3c(c2)OCO3)C(=O)[C@H]2CCCN2C1=O |
| -7.48 | CCCC[C@@H]1NC(=O)[C@@H](CC(C)C)NC(=O)CN(CC2CCOCC2)C(=O)[C@H](C)NC(=O)CN(CC)C(=O)[C@@H]2CCCN2C1=O |
| -5.03 | CCCC[C@@H]1NC(=O)[C@H](CC(C)C)N(C)C(=O)CN(CC2CCOCC2)C(=O)[C@H](Cc2ccccc2)NC(=O)CN(Cc2ccc3c(c2)OCO3)C(=O)[C@@H]2CCCN2C1=O |
| -5.44 | CCCC[C@@H]1NC(=O)[C@H](CC(C)C)NC(=O)CN(CC2CCOCC2)C(=O)[C@H](Cc2ccccc2)NC(=O)CN(CCCOC(C)C)C(=O)[C@H]2CCCN2C1=O |
| -5.27 | CCCC[C@@H]1NC(=O)[C@@H](CC(C)C)NC(=O)CN(CC2CCOCC2)C(=O)[C@@H](Cc2ccccc2)NC(=O)CN(Cc2ccc3c(c2)OCO3)C(=O)[C@H]2CCCN2C1=O |

The first 4 entries again:

SMILES	PAMPA (log10 cm/s)
CCCCCN1CC(=O)N(C)[C@H](CC(C)C)C(=O)N[C@@H](CCCC)C(=O)N2CCC[C@H]2C(=O)N(Cc2ccc3c(c2)OCO3)CC(=O)N[C@H](Cc2ccccc2)C1=O	-5.43
CCCC[C@@H]1NC(=O)[C@H](CC(C)C)NC(=O)CN(CC2CCCCC2)C(=O)[C@@H](Cc2ccccc2)NC(=O)CN(Cc2ccc3c(c2)OCO3)C(=O)[C@@H]2CCCN2C1=O	-5.64
CCCCCN1CC(=O)N(C)[C@@H](CC(C)C)C(=O)N[C@@H](CCCC)C(=O)N2CCC[C@H]2C(=O)N(CCCOC(C)C)CC(=O)N[C@H](C)C1=O	-5.23
CCCCCN1CC(=O)N[C@@H](CC(C)C)C(=O)N[C@@H](CCCC)C(=O)N2CCC[C@@H]2C(=O)N(Cc2ccc3c(c2)OCO3)CC(=O)N[C@H](C)C1=O	-5.67